# Ab-14 light chain CDR variants: yeast mating affinities

Values reported by Li et al. 2023, doi:10.1038/s41467-023-39022-2 (FLAb copy).

Binding partner: SARS-CoV-2 spike HR2 peptide, sequence PDVDLGDISGINAS.

Each scFv is VH, a 15-residue (Gly4Ser)3 linker, VL, as in the parent Ab-14, and differs from it in the CDRs of the light chain only.
VH: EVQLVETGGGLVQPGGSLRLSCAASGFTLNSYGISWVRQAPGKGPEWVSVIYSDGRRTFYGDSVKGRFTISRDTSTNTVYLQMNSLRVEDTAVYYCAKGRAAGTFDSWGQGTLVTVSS
VL: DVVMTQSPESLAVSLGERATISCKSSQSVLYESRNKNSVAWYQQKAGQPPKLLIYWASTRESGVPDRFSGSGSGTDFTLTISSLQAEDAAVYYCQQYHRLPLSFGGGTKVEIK

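The parent was found by panning a naive human phage display library on the peptide. The variants were designed computationally from a first round of random CDR variants and then made and measured. Group labels follow the data file (Ctrl: baseline library sampled from a position-specific scoring matrix, with some repeated check sequences; En: ensemble of fine-tuned language models; GP: Gaussian process model; HC: hill climbing; Gen: genetic algorithm; Gibbs: Gibbs sampling; a sequence that several methods proposed may carry one label only). AlphaSeq pools MATa yeast showing the antibodies with MATalpha yeast showing the peptide. Pairs that bind mate more often; barcode pairs of the diploids are counted by sequencing. Scores were corrected for input abundance and mapped to Kd with protein pairs of known affinity run in the same pool. There are six technical replicates.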

The whole VL of each variant is written out.
Variants here have more than six changes.
The Kd shown is the geometric mean over detected replicates; a lower Kd is a better binder.
Where no diploid with the target was found in any replicate, the entry reads "nd": below detection, most likely a poor binder, though not proof of it.
Background: pairings of all light chain designs with three empty control strains gave a value in 4% of cases (median 430 nM, 5th percentile 38 nM). Values in that range, when seen in few replicates, are hard to tell from nonspecific mating. For each scFv, signals with the empty controls are counted beside the result.
The authors averaged sequences with at least three values out of six and counted those with two or fewer as poor binders.
The parent sequence was in this pool as ten entries: three were never detected, three once, and four in most replicates, with averages from 2.2 nM to 240 nM.
A sequence measured in both rounds can read differently, since the two assays cover different ranges.

For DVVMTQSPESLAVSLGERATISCHMSMLTLTGMRQKNSVAWYQQKAGQPPKLLIYQMTTRENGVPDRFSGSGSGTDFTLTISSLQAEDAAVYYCQQYDRLPLAFGGGTKVEIK [En_Gen], the assay gave 26 nM (4 of 6 replicates; controls 0 of 18).
For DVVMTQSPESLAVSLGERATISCNLNDTPMEQQIHMDAIAWYQQKAGQPPKLLIYQEAIRNAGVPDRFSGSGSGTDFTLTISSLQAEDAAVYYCQQYARLPLSFGGGTKVEIK [En_Gibbs], the assay gave 7.8 nM (6 of 6 replicates; controls 0 of 18).
For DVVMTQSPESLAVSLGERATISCKVDMGELPNGFNRSHVAWYQQKAGQPPKLLIYQAEVRAPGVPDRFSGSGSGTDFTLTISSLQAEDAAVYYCQQYWRLPLEFGGGTKVEIK [En_Gibbs], the assay gave 19 nM (6 of 6 replicates; controls 0 of 18).
For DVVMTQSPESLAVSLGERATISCFIPQSGLYDNRNVNSVAWYQQKAGQPPKLLIYSASTRLSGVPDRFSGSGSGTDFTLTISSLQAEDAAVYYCQQYHRLPLSFGGGTKVEIK [GP_Gibbs], the assay gave 1.7 nM (6 of 6 replicates; controls 0 of 18).
For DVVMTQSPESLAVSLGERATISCHFAKNLTSLASSKQNVAWYQQKAGQPPKLLIYNASTVMVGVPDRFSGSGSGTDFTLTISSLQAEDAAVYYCQYYNRLPLSFGGGTKVEIK [En_Gibbs], the assay gave 1.6 µM (1 of 6 replicates; controls 0 of 18).
For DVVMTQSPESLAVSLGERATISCKAQQGELYESRDWNSVAWYQQKAGQPPKLLIYDASKRLSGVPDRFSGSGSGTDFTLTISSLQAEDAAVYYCQQYHRLPLSFGGGTKVEIK [GP_Gibbs], the assay gave 400 pM (6 of 6 replicates; controls 0 of 18).
For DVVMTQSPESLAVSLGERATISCKMSQLQLYEWRNSNSVAWYQQKAGQPPKLLIYNASYRESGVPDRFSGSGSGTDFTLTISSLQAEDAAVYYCQQYHRLPLSFGGGTKVEIK [GP_Gibbs], the assay gave 1.8 nM (6 of 6 replicates; controls 1 of 18).
For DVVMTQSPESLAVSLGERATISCLSSQSLLYESRNWNSVAWYQQKAGQPPKLLIYMASTRASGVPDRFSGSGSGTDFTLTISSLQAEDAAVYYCQDYHRLPCDFGGGTKVEIK [Ctrl], the assay gave nd (0 of 6 replicates; controls 0 of 18).
For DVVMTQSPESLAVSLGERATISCKLQQSMLYMDRNANNVAWYQQKAGQPPKLLIYNASTRMSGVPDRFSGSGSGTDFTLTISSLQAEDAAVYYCQQYHRLPLSFGGGTKVEIK [GP_Gibbs], the assay gave 300 pM (6 of 6 replicates; controls 2 of 18).
For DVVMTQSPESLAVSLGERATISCKISQSVMYMSSVYNSVAWYQQKAGQPPKLLIYQMSTREEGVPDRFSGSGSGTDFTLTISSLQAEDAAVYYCQQYNRLPLSFGGGTKVEIK [En_HC], the assay gave 21 nM (1 of 6 replicates; controls 0 of 18).
For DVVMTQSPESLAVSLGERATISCALTAHRLVAIEQKNSIAWYQQKAGQPPKLLIYNAVMRYDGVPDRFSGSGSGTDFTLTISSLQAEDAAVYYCQQYAQLPLMFGGGTKVEIK [En_Gibbs], the assay gave 11 nM (6 of 6 replicates; controls 0 of 18).
For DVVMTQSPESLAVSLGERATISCMVTQLMLWGWHAKNSIAWYQQKAGQPPKLLIYEAQTRVNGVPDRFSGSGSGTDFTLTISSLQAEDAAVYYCQQYDRLPLIFGGGTKVEIK [En_Gen], the assay gave 1.1 µM (4 of 6 replicates; controls 1 of 18).
For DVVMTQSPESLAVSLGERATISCKIQDNLGTLMEQINSIAWYQQKAGQPPKLLIYNSEEIVQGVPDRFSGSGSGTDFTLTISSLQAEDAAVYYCQSYFRLPLSFGGGTKVEIK [En_Gibbs], the assay gave 27 nM (4 of 6 replicates; controls 0 of 18).
For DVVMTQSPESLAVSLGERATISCIVSQLMLWGMHAKNSIAWYQQKAGQPPKLLIYEAEMRTNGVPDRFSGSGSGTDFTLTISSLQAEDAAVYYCQQYDRLPLIFGGGTKVEIK [En_Gen], the assay gave nd (0 of 6 replicates; controls 0 of 18).
For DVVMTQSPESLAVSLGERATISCKIQSHLSQSFASKNNIAWYQQKAGQPPKLLIYDRVQSAEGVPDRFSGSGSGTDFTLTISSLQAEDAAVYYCQQYNRLPLVFGGGTKVEIK [En_Gibbs], the assay gave 2.5 nM (6 of 6 replicates; controls 0 of 18).
For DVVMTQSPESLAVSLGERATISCMITAGLRGVGRNKNSVAWYQQKAGQPPKLLIYNAQTRESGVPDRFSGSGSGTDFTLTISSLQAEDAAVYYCQHYNRLPLSFGGGTKVEIK [En_HC], the assay gave 120 nM (4 of 6 replicates; controls 1 of 18).
For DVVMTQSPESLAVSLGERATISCSLAYTQHFGFSQEKAIAWYQQKAGQPPKLLIYEVATREQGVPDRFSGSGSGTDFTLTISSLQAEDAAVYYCQQYFRLPLGFGGGTKVEIK [En_Gibbs], the assay gave nd (0 of 6 replicates; controls 0 of 18).
For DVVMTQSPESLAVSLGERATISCKLYHMTGIESHAKNSLAWYQQKAGQPPKLLIYDANRREDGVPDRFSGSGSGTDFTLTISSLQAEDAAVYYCQQYHRLPLSFGGGTKVEIK [En_HC], the assay gave 1.7 nM (6 of 6 replicates; controls 0 of 18).
For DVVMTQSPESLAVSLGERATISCHTQHLGFDDPKHWNSIAWYQQKAGQPPKLLIYEVSQVCSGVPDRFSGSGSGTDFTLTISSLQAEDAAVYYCQQYMRLPLTFGGGTKVEIK [En_Gibbs], the assay gave 35 nM (6 of 6 replicates; controls 0 of 18).
For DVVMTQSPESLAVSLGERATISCKIGQMSTIESIMHNSVAWYQQKAGQPPKLLIYQTSTRENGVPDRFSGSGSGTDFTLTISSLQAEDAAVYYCQQYDRLPLSFGGGTKVEIK [En_HC], the assay gave 18 nM (6 of 6 replicates; controls 2 of 18).

From the list, the first 2 with no signal in any replicate:

With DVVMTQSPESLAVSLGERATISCLSSQSLLYESRNWNSVAWYQQKAGQPPKLLIYMASTRASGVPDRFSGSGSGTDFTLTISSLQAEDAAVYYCQDYHRLPCDFGGGTKVEIK [Ctrl] the result was nd (0 of 6 replicates; controls 0 of 18).
With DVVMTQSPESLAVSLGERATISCIVSQLMLWGMHAKNSIAWYQQKAGQPPKLLIYEAEMRTNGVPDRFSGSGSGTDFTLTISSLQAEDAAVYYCQQYDRLPLIFGGGTKVEIK [En_Gen] the result was nd (0 of 6 replicates; controls 0 of 18).